OPERA 2.9 data: properties

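OPERA's authors assembled the values from existing databases and did not measure them anew. One number stands for a compound and property, with no spread given. Method and conditions are not stated for these values. The measured form (salt, isomer or mixture) is not always the one drawn. Some entries may be limits or estimates that an upstream database listed as plain numbers.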

The melting point is given in degrees Celsius.
The boiling point refers to atmospheric pressure (760 mmHg), by the definition of the set.
The octanol-water partition coefficient is given as log10; larger values mean a more lipophilic compound.
Water solubility is log10 of mol/L, nominally at 25 °C; higher is more soluble.
Vapor pressures (log10 mmHg) refer to near room temperature, 15 to 30 °C; higher is more volatile.
The unbound fraction in human plasma runs from 0 (all bound) to 1 (all free).
Clint is human hepatic intrinsic clearance in µL/min per million cells; 0 means that no clearance was seen.
Cells with "–" have no entry in this list.

| mp (°C) | BP (°C) | log Kow | log solubility (log10 mol/L) | vapor pressure (log10 mmHg) | fu | hepatic Clint (µL/min/10^6 cells) | SMILES | name |
|---|---|---|---|---|---|---|---|---|
| – | – | – | -0.572 | -1.143 | – | – | C=C(C)C(=O)OCC(C)O (centres undefined) | 2-Hydroxypropyl 2-methylacrylate |
| – | – | 2.027 | -7.648 | – | – | – | Cc1cc(S(=O)(=O)[O-])c(/N=N/c2c(O)ccc3ccccc23)cc1Cl.Cc1cc(S(=O)(=O)[O-])c(/N=N/c2c(O)ccc3ccccc23)cc1Cl.[Ba+2] | – |
| – | – | -1.7 | – | -9.319 | – | – | CC(=O)NC(Cc1c[nH]c2ccccc12)C(=O)O (centres undefined) | Acetyltryptophan |
| 334 | – | – | -1.849 | -3.763 | – | – | Cc1cc2nc(O)[nH]c2cc1N | 6-Amino-5-methyl-1H-benzimidazol-2-ol |
| – | – | 2.97 | -5.378 | – | – | – | COc1cc(OC)c(NC(=O)c2cc3ccccc3cc2O)cc1Cl | – |
| 150.9 | – | 2.6 | -3.514 | -5.122 | – | – | O=C1CCC(O)C2C3CCC(C3=C(Cl)Cl)C12 (centres undefined) | – |
| -123 | – | – | -1.069 | 1.47 | – | – | C=CC(C)C#N (centres undefined) | 2-Methyl-3-butenenitrile |
| – | 218.9 | 4.73 | – | – | – | – | C=Cc1ccc(C(C)(C)C)cc1 | 4-tert-Butylstyrene |
| – | – | -0.56 | – | -1.648 | – | – | CN(C)CCCNCCCN | Dimethyldipropylenetriamine |
| – | – | – | -3.431 | – | 0.25 | – | C[C@]12CCC(=O)C=C1CC[C@H]1[C@@H]3CC[C@](O)(C(=O)CO)[C@@]3(C)C[C@H](O)[C@@]12F | Fludrocortisone |
| 34 | 262 | – | -5.288 | -3.745 | – | – | CC(C)[C@H]1OCC[C@]2(C[C@H]3CC[C@]2(C)C3(C)C)O1 | – |
| 50.8 | – | – | -3.34 | – | – | – | CC(C)OC(=O)C1(S(=O)(=O)c2ccccc2)CCC1 | – |
| 186 | – | -2.4 | – | – | – | – | Cl.Nc1cc(C(=O)NCC(O)CO)cc(C(=O)NCC(O)CO)c1 (centres undefined) | – |
| 163 | – | 1 | – | – | – | – | C=C(C)C(=O)NCNC(=O)C(=C)C | 2-Propenamide, N,N'-methylenebis[2-methyl- |
| – | – | – | -6.17 | -7.226 | – | – | C/C=C/C(=O)Oc1c(C(C)CCCCCC)cc([N+](=O)[O-])cc1[N+](=O)[O-] (stereo partly drawn) | Meptyldinocap |
| – | – | 4.38 | -0.235 | -7.582 | – | – | CC(O)C(=O)O.CCCCC(CC)COC(=O)Nc1ccc(C)c(NC(=O)OCCN(C)C)c1 (centres undefined) | – |
| – | – | – | -1.725 | -1.477 | – | – | COc1cccc(C(C)=O)c1 | 3-Methoxyacetophenone |
| – | – | 4.5 | -3.338 | -1.779 | – | – | CC(=O)OC1CC2CC1C1CCCC21 (centres undefined) | Octahydro-4,7-methano-1H-inden-5-yl acetate |
| 33.6 | – | 2.8 | -4.398 | -6.339 | – | – | Cc1ccc(S(=O)(=O)OCCc2cccs2)cc1 | 2-(2-Thienyl)ethyl toluene-p-sulphonate |
| – | – | – | -3.12 | -9.076 | – | – | Cc1nn(C)c(Cl)c1C(O)=Nc1cccc2c1C(C)OC2(C)C (centres undefined) | Furametpyr |
| – | – | – | – | – | 0.03116 | 47.4 | O=C1OC(c2ccc(O)cc2)(c2ccc(O)cc2)c2ccccc21 | Phenolphthalein |
| 80 | – | 2.86 | -3.924 | – | – | – | CC(c1ccccc1)c1cc(C(=O)[O-])c(O)c(C(C)c2ccccc2)c1.CC(c1ccccc1)c1cc(C(=O)[O-])c(O)c(C(C)c2ccccc2)c1.[Zn+2] (centres undefined) | Zinc(2+) 3,5-bis(1-phenylethyl)salicylate |
| – | – | 0.491 | – | -1.534 | – | – | C=C(C)C(=O)NC(C)C | N-Isopropylmethacrylamide |
| 208 | – | 3.966 | -6.806 | – | – | – | O=C1c2ccccc2C2=Nc3cccc4cccc(c34)N12 | 12H-Phthaloperin-12-one |

Extract of 2 entries:

| SMILES | name | mp (°C) | BP (°C) | log Kow | log solubility (log10 mol/L) | vapor pressure (log10 mmHg) | fu | hepatic Clint (µL/min/10^6 cells) |
|---|---|---|---|---|---|---|---|---|
| CC(C)[C@H]1OCC[C@]2(C[C@H]3CC[C@]2(C)C3(C)C)O1 | – | 34 | 262 | – | -5.288 | -3.745 | – | – |
| COc1cc(OC)c(NC(=O)c2cc3ccccc3cc2O)cc1Cl | – | – | – | 2.97 | -5.378 | – | – | – |

Values as listed in the OPERA 2.9 repository of K. Mansouri.